Laboratory results taken from patent publication US20210340245A1 (Janssen / Centocor, published 2021).

Protein sequences, listed by entry. Tags and fused reporters are not part of them. Residues count along the entry.
UniProt P01375, 77-233 limits assumed: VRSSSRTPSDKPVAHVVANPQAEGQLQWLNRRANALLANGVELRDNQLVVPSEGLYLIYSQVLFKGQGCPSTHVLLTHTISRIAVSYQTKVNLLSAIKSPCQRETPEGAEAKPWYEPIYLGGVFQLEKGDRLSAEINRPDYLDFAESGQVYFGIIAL

Molecular target: T1, recombinant human TNFα (human, UniProt P01375 77-233, 125I label in the receptor-blocking assay)
T1 construct: also called huTNFα; tumor necrosis factor alpha
Test: competition radioligand assay: cA2 spiked into anti-IL-18 control supernatant, preincubated with 125I-TNFα (5 ng/ml); binding of TNFα to plate-coated p55-sf2 read as cpm bound

B1: chimeric antibody cA2 (antibody, V domains shown)
VH: EVKLEESGGGLVQPGGSMKLSCVASGFIFSNHWMNWVRQSPEKGLEWVAEIRSKSINSATHYAESVKGRFTISRDDSKSAVYLQMTDLRTEDTGVYYCSRNYYGSTYDYWGQGTTLTVS
VL: DILLTQSPAILSVSPGERVSFSCRASQFVGSSIHWYQQRTNGSPRLLIKYASESMSGIPSRFSGSGSGTDFTLSINTVESEDIADYYCQQSHSWPFTFGSGTNLEVK
**Q.** How did the “IC50 (read off the curve)” value turn out when B1 was run?
**A.** Its value is roughly 10 ng/mL.
